Earlier results as cited in patent US20160034667A1, “TAILORED DRUG THERAPIES AND METHODS AND SYSTEMS FOR DEVELOPING SAME” (COMPANION DX REFERENCE LAB, LLC, priority 2014, published 2016).

Conditions: in vivo

Structure (SMILES): Cn1c(=O)c2[nH]cnc2n(C)c1=O [Theophylline]
- Critical: >30 µg/mL
